# In patent US6387389B1 (priority 1996, dated 2002):
# Amino acid sequences for entries named in this document (tags omitted).
# UniProt P31652, whole entry: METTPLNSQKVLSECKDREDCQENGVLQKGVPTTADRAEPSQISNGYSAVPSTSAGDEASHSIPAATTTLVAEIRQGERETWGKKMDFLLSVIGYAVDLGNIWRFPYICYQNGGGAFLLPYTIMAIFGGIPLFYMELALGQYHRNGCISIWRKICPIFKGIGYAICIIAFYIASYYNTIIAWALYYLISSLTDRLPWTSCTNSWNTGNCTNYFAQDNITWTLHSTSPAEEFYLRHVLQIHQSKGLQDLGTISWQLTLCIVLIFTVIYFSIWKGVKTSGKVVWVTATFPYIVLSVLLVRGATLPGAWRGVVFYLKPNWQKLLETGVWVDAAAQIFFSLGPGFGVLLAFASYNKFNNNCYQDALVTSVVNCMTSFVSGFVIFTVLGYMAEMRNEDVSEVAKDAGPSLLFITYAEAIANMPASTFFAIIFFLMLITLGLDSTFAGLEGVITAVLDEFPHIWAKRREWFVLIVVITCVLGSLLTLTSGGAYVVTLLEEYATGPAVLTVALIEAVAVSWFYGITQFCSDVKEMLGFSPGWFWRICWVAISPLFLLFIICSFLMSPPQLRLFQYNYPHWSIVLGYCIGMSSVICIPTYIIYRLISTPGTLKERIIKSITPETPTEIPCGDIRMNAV
# Molecular target: serotonin transporter (ST) (Rattus norvegicus, UniProt P31652)
# Conditions: read-out: SERT labeled [125I] RTI 55 binding, 18 to 24 hrs at 4° C.
smiles,measurement,value
"Fc1ccc(C(OCCN2CCN(CCCc3ccccc3)CC2)c2ccc(F)cc2)cc1 [GBR 12909, 1-[2-[bis(4-fluorophenyl)methoxy]ethyl]-4-[3-phenylpropyl]piperazine]",IC50,127 nM
